Molecules are shown by their SMILES. The entries are a selection whose mix differs from that of the whole data set. Some tests of the compounds listed are not included; inactive here does not mean inactive elsewhere. Activity calls are given as the source filed them. Rule as the data show it: active = inhibition above about 12%; inactive = the rest.

This passage reports inhibition results from PubChem BioAssay AID435030 (The Scripps Research Institute Molecular Screening Center, 2010).

The experiment can be described thus: reduced growth of AddAB-expressing E. coli cells – absorbance, AddAB inhibitor project, primary screen (AID 435030).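 Also: 0% = vehicle wells of infected cells.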 The note with it: E. coli expressing H. pylori AddAB, at 11.9 µM, hits give high values.
Usually inhibition stands for the change of the read-out against control, counted positive when it falls. Consider `CCN(CC)CC(C)C(C)OC(=O)C(O)(c1ccccc1)c1ccccc1` (centres undefined), for which the inhibition was inactive: -0.94%.
For `COc1cc(SC)ccc1C(=O)NCC1(N(C)C)CCCCC1`, the inhibition is inactive: 0.98%.
The same measure for `CC(C)N1C(=O)CC2(CCN(CCOC(=O)C(O)(c3ccccc3)c3ccccc3)CC2)C1=O`: inactive: 1.66%; for `Cc1ccc(C(=O)NCC2(N3CCCCC3)CCCCC2)cc1`: inactive: 2.51%.
With `O=C(NCC1(N2CCCCC2)CCCCC1)c1cc([N+](=O)[O-])ccc1Cl`, the inhibition is inactive: 2.7%.
`CN1[C@@H]2CC[C@H]1CC(OC(=O)C(O)(c1ccccc1)c1ccccc1)C2` (some centres undefined): the inhibition is inactive: -1.01%.
The same measure for `C=CCN1CCN(CCOC(=O)C(O)(c2ccccc2)c2ccccc2)CC1`: inactive: 5.24%; for `O=C(NCC1(N2CCCCC2)CCCCC1)c1cc(F)c(F)cc1Cl`: inactive: 3.57%; for `COc1ccc(C(=O)NCC2(N(C)C)CCCCC2)cc1`: inactive: 0.08%.
The same measure for `CCN1CCCC(OC(=O)C2(O)c3ccccc3C=Cc3ccccc32)C1` (centres undefined): inactive: 2.26%; for `Cc1cc(C(=O)NCC2(N3CCCCC3)CCCCC2)ccc1[N+](=O)[O-]`: inactive: -1.04%; for `O=C(NCC1(N2CCCCC2)CCCCC1)c1cccc(Br)c1`: inactive: 1.02%.
The same measure for `Cc1ccccc1C(=O)NCC1(N2CCCCC2)CCCCC1`: inactive: 0.34%; for `CN(C)c1ccc(C(=O)NCC2(N(C)C)CCCCC2)cc1`: inactive: 1.56%; for `CN(C)C1CCCC1OC(=O)C(O)(c1ccccc1)c1ccccc1` (centres undefined): inactive: 1.72%.
Turning to `COc1cccc(C(=O)NCC2(N3CCCCC3)CCCCC2)c1`, the inhibition is inactive: 0.34%.
The same measure for `COc1ccc(Cl)cc1C(=O)NCC1(N(C)C)CCCCC1`: inactive: 1.76%; for `O=C(NCC1(N2CCCCC2)CCCCC1)c1cccc(Cl)c1`: inactive: 3.52%; for `CN(C)C1(CNC(=O)c2ccc(Br)cc2)CCCCC1`: inactive: -0.41%.
The same measure for `COc1cc(C(=O)NCC2(N(C)C)CCCCC2)c([N+](=O)[O-])cc1OC`: inactive: 0.16%; for `COc1ccc(Br)c(C(=O)NCC2(N3CCCCC3)CCCCC2)c1`: inactive: -0.88%.
For the compound `CC(C)Oc1ccc(C(=O)NCC2(N(C)C)CCCCC2)cc1`, the inhibition is inactive: -0.25%.
`CN(C)c1cccc(C(=O)NCC2(N(C)C)CCCCC2)c1`: the inhibition is inactive: 3%.
The same measure for `O=C(OC1CN2CCC1CC2)C(CO)(c1ccccc1)c1ccccc1` (centres undefined): inactive: -0.89%.
